From patent US20090196871A1, “USE OF 4-PYRIDYLMETHYLPHTHALAZINES FOR CANCER TREATMENT” (priority 2001, published 2009)

Conditions: human, in vivo, po

For `Clc1ccc(Nc2nnc(Cc3ccncc3)c3ccccc23)cc1`, the “time by which steady-state was achieved” value was at most 15 days.
